Tests used:
[1] = preclinical toxicology; type: in vivo
[2] = time-retention and tissue distribution; type: in vivo
Procedure: The preparation has a sufficiently high parameter of time-retention in an organism (almost 22 hours).

[3] = as much as possible tolerable doses

Substance: 1(10)β-epoxy-13-dimethylamino-5,7α,6,11β(H)-guaia-3(4)-en-6,12-olide hydrochloride [Arglabin]
- function state of liver, kidneys, cardiovascular system, breathing, peripheral nervous system [1, 3]: does not break
- influence on morphological structure of peripheral blood and osseous tissue [1, 3]: does not influence
- allergenic and pyrogenic properties ([1]; in vivo): are not revealed
- embryotoxic, teratogenic and mutafacient properties ([1]; in vivo): has no embryotoxic, teratogenic and mutafacient properties
- topical-irritating action ([1]; intravenous, intraperitoneal, intramuscular, hypodermic introduction): does not render topical-irritating action
- tissues with the greatest concentrations ([2]; during the first hour): lien and lung
- tissues in which it is also collected ([2]; in 3 hours): liver and skeletal muscles
- penetration from central camera (blood) into peripheral tissues ([2]; in vivo): quickly penetrates
- time-retention in an organism ([2]; in vivo): ~22 h

— patent publication US20090171105A1, “METHOD FOR PRODUCTION OF HYDROCHLORIDE 1(10) BETA-EPOXY-13-DIMETHYLAMINO-5,7ALPHA,6,11BETA (H)-GUAIA-3(4)-EN-6,12-OLIDE, THE LYOPHILIZED ANTITUMOR PREPARATION 'ARGLABIN'” (priority 2006, published 2009)
